Laboratory results from patent US11249070B2, “Anti-cancer drug assessment method” (TOPPAN PRINTING CO., LTD., priority 2016, dated 2022).

Legend:
[1] = tested on: HCT116; test: CNT with 5-FU with or without bevacizumab, 2D, spheroid, 3D (Example 5); type: cell-based, human; settings: 5-FU 1 mM, bevacizumab 2 μg per well in the combination, 72 hours
[2] = tested on: patient-derived breast cancer cells CLTH/BC; settings: 3D; Oxaliplatin 10 μg; bevacizumab 2 μg per well in the combination; 72 hours

SMILES	CNT (%) Average value [1]	CNT (%) Average value [2]
O=c1[nH]cc(F)c(=O)[nH]1 [5-FU]	61.2%	–
O=C1[O][Pt]2([NH][C@@H]3CCCC[C@H]3[NH]2)[O]C1=O [Oxaliplatin, oxaliplatin]	–	69.4%
